According to patent US20040248802A1, “Poly-Glu, Tyr for neuroprotective therapy” (published 2004):

What was measured:
MK-801-injected mice = assay: MK-801-induced cognitive impairment, Morris water maze (MWM)
ALS patients = conditions: in vivo; cited from earlier work
[1] = tested on: CD4+CD25+ regulatory T cells (Treg); conditions: TregYE co-cultures with 20 μg/ml added (TregYE+YE)
HD R6/2 transgenic mice = assay: Huntington's disease model: HD R6/2 transgenic mice; conditions: expected
axotomized motor neurons = assay: Facial nerve axotomy (acute motor neuron disorder model); conditions: facial nerve axotomy; vs other groups; expected
RGCs [2] = assay: Acute glaucoma model (transient IOP elevation), RGC survival
ALS mice SOD1 = assay: ALS model: transgenic mutant SOD1 mice, muscle strength test; conditions: expected
RGCs [3] = assay: Chronic glaucoma model (laser-induced high IOP), RGC survival
Treg cells = assay: Cytokine profile of Treg cells upon incubation with poly-Glu,Tyr
[4] = tested on: rats subjected to permanent MCA occlusion; assay: Permanent middle cerebral artery occlusion (MCAO) model of stroke; conditions: for ischemia-induced weight loss (body weight): day 8 to day 15, vs PBS, p<0.05; for improvement in NSS vs days 1-2: 1, 1.5, 2 weeks; for improvement in NSS, comparison among doses: following 2 weeks; for neurological outcome (NSS): up to 14 days post-occlusion
spinally contused rats = assay: Spinal cord contusion (NYU impactor), open field BBB locomotor score
[5] = tested on: retinal ganglion cells (RGCs); assay: In vivo model of glutamate toxicity: RGC survival after intravitreal glutamate injection
[6] = 20 μg/ml, conditioned media collected 24 hours after incubation

C[C@]12N[C@H](Cc3ccccc31)c1ccccc12
performance of a spatial memory task in the MWM (MK-801-injected mice; MK-801 0.1 mg/kg i.p. 15 min before test): significantly impaired

Nc1nc2ccc(OC(F)(F)F)cc2s1
prolongation of the life of ALS patients (ALS patients): approximately three

poly-Glu,Tyr
Teff proliferation in co-cultures [1]: significantly higher Teff proliferation
mortality and onset of disease (HD R6/2 transgenic mice; HD R6/2 mice): delay mortality and onset of disease
body weight loss following immunization (HD R6/2 transgenic mice; any of the doses vs control group): No body weight loss
rotarod performance (HD R6/2 transgenic mice; follow-up period 8-14 weeks, vs untreated mice): improve the rotarod performance
dead neurons in brain (HD R6/2 transgenic mice; vs non-treated mice): fewer dead neurons
whisking activity (amplitude, angular velocity, angular acceleration during protraction) (axotomized motor neurons): significantly better whisking activity
RGC cell count per mm^2 in right (injured) eye (RGCs [2]; eye drops applied on contralateral left eye, Lewis rats, two weeks later, control 1454±221, p<0.01): 1908±252 per mm^2
death rates of RGCs (RGCs [2]; eye drops as in Example 8, high IOP 1 hour, assessed two weeks later, control 58.58%±7.42, p<0.01): 31.5±4.73%
RGC loss induced by transient IOP elevation (RGCs [2]; five eye drops (1 mg each) at 5 minute intervals immediately after removal of the needle): significantly reduced RGC loss
RGC loss induced by transient IOP elevation (RGCs [2]; subcutaneous injection 500 μg immediately after removal of the needle): significantly reduced RGC loss
task acquisition in the MWM (escape latency) (MK-801-injected mice; 25 μg/mouse SC one week before MK-801 0.1 mg/kg i.p., acquisition phase, MK-801 impaired PBS-treated but not immunized mice): decreasing latencies in successive trials
swimming strategies in the MWM (MK-801-injected mice; 25 μg/mouse SC one week before MK-801 (0.1 mg/kg i.p., 15 min before test), first day, vs PBS): more methodical swimming strategies than the controls
hanging time on rotating vertical rod (ALS mice SOD1; 25-500 μg in PBS, vs non-immunized ALS mice): longer hanging time than the non-immunized mice
life span (ALS mice SOD1; transgenic mice): prolonged life span
loss of body weight (ALS mice SOD1; transgenic mice): slower loss of body weight
rate of muscle strength decline (ALS mice SOD1; vs non-immunized ALS mice): significantly lower rate of muscle strength decline
retention of motor power (ALS mice SOD1; vs non-immunized animals): retain motor power for a longer period of time
number of surviving RGCs (RGCs [3]; 500 μg emulsified with CFA one hour after first laser treatment, SPD rats, vs non-immunized (PBS alone)): significant increase in the number of surviving RGCs
average death rate of RGCs (mean±SD), percentage of normal eyes (RGCs [3]; eye drops 10 mg/ml in PBS, 10 drops of 50 μl, after second laser session, 3 weeks after IOP elevation, control 48.52%±1.68, p<0.0001): 27.33%±4.73
RGC death / survival after exposure to high IOP (RGCs [3]; immunization in CFA SC immediately after first laser session, R16 30 μg, A91 100 μg, poly-Glu,Tyr 100 μg, Lewis rats): significantly reduced RGC death
IFN-γ secretion by Treg cells (Treg cells; [6]): up regulation
IL-2 secretion by Treg cells (Treg cells; [6]): up regulation
IL-10 secretion by Treg cells (Treg cells; [6]): down regulation
TGF-β secretion by Treg cells (Treg cells; [6]): up regulation
proliferation of the Treg cells (Treg cells; in the presence of poly-Glu,Tyr): increased proliferation
ischemia-induced weight loss (body weight) ([4]; 150 μg 6 hours post-MCA occlusion): significantly lower than of the control group
improvement in NSS vs days 1-2 ([4]; 150 μg per rat single SC in PBS immediately after MCA occlusion): greater improvement in the neurological score than the control group
improvement in NSS, comparison among doses ([4]; 150 μg/rat immediately after MCA occlusion): greatest improvement
ischemia-induced weight loss (body weight) ([4]; 500 μg 6 hours post-MCA occlusion): significantly lower than of the control group
improvement in NSS vs days 1-2 ([4]; 500 μg per rat single SC in PBS immediately after MCA occlusion): greater improvement in the neurological score than the control group
hippocampal neurons: ischemia-induced degeneration (necrotic cells in CA1, CA2, CA3) ([4]; 500 μg/rat immediately after MCA occlusion, 48 hours after occlusion, p=0.047 ANOVA): protected significantly
improvement in NSS, comparison among doses ([4]; 500 μg/rat immediately after MCA occlusion): greatest improvement
ischemia-induced weight loss (body weight) ([4]; 1000 μg 6 hours post-MCA occlusion): significantly lower than of the control group
improvement in NSS vs days 1-2 ([4]; 1000 μg per rat single SC in PBS immediately after MCA occlusion): greater improvement in the neurological score than the control group
infarct volume ([4]; permanent MCAO in rats): no effect
neurological outcome (NSS) ([4]; single injection 500 μg/rat SC 6 hours post MCAO): significantly improved neurological outcome
neurological outcome (NSS) ([4]; single injection 500 μg/rat SC 24 hours post MCAO): significantly improved neurological outcome
neurological outcome (NSS) ([4]; single injection 500 μg/rat SC immediately post MCAO): significantly improved neurological outcome
hind limb motor recovery, BBB locomotor score (spinally contused rats; 100 μg/rat in CFA SC immediately after injury and 7 days later, contusion at T8, vs PBS/CFA): tendency to recover better than PBS-treated rats
recovery of locomotor activity, BBB locomotor score (spinally contused rats; 500 μg emulsified in CFA SC up to 1 hour after contusion at T9, vs PBS/CFA and PBS): recovered significantly better
functional outcome, open-field motor score (BBB scale) in incomplete spinal cord injury (ISCI) (spinally contused rats; immunization in CFA SC within one hour after contusion at T8, R16 30 μg, A91 100 μg, poly-Glu,Tyr 100 μg, SPD rats): significantly improved functional outcome
RGC survival, percentage of normal eyes ([5]; 25 μg/mouse in PBS without adjuvant 7 days prior to intraocular glutamate, 7 days after exposure, non-treated 34%): 68%
glutamate-induced RGC death ([5]; 100 μg emulsified in CFA SC 7 days prior to glutamate (400 nmole) into vitreous, 7 days after, vs CFA-PBS (p=0.007) and non-immunized (p=0.01)): significantly attenuated
RGC survival vs negative control group ([5]; 225 μg/mouse in PBS without adjuvant 7 days prior to intraocular glutamate, 7 days after exposure, p<0.001): higher than the negative control group
